Results from PubChem BioAssay AID720711 (National Center for Advancing Translational Sciences (NCATS), 2013).
The entries are a selection whose mix differs from that of the whole data set. The source made the active and inactive calls. Calls come from the whole dose curve; as a rule, active = well fitted activation curve with a large enough effect; inconclusive = small, poorly fitted or top-dose-only effect; inactive = no such curve, though single readings can be large or run the other way.

Chains of the proteins cited; added tags and fusions are not shown.
UniProt Q8WZA2, whole entry: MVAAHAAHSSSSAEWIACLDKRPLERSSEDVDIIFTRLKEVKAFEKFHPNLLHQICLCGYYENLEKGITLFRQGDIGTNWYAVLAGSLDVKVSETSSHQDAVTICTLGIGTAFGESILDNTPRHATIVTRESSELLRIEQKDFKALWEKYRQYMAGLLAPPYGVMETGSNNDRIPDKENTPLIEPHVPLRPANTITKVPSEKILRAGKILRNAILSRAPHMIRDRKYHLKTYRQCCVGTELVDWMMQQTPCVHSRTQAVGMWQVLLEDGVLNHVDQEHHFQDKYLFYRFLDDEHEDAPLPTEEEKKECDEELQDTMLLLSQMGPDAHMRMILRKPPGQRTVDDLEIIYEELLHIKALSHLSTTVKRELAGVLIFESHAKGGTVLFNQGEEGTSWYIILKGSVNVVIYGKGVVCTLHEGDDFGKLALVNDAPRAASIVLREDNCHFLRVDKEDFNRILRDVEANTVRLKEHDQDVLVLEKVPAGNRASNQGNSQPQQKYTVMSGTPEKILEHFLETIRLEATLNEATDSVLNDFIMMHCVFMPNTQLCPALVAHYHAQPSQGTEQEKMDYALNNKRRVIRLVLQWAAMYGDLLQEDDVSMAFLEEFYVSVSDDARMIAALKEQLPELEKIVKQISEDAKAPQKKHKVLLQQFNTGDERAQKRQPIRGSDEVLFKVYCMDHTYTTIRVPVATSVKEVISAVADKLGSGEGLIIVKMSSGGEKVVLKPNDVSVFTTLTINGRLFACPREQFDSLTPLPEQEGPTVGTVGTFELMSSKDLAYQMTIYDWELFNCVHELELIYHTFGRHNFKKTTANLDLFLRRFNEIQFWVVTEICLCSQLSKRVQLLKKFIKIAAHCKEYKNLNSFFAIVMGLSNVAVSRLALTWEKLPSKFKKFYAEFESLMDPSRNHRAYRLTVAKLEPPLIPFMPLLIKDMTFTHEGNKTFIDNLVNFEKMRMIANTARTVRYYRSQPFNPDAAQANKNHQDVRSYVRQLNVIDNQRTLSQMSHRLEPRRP

Target: Rap guanine nucleotide exchange factor 4 (Homo sapiens) (UniProt Q8WZA2)
Assay: qHTS for Agonist of cAMP-regulated guanine nucleotide exchange factor 4 (EPAC2): primary screen; note: nearly all actives have a fitted effect of over 50% in size
Details: biochemical qHTS, 100% = 6.5 mM cAMP response; at 154 µM (top of the series)
From the text: In multi-cellular eukaryotic organisms, the effects of cAMP are transduced by two ubiquitously-expressed intracellular cAMP receptors, the classic protein kinase A/cAMP-dependent protein kinase (PKA/cAPK) and the more recently discovered exchange protein directly activated by cAMP/cAMP-regulated guanine nucleotide exchange factor (EPAC/cAMP-GEF). Both PKA and EPAC are ubiquitously expressed in all tissues, and an increase in intracellular cAMP levels will lead to the activation of both PKA and EPAC. […]
This qHTS will be used to screen the Molecular Libraries Small Molecule Repository (MLSMR) as a concentration-titration series using the NCGC unique quantitative screening (qHTS) platform to find activators for EPAC2. […] Activators are identified by monitoring the change in fluorescence signal as the exchanged free BODIPY-GDP has a reduced fluorescence compared to Rap1-bound BODIPY-GDP. […]
Briefly, three uL of reagents (100 nM EPAC2, 250 nM RAP1B-BODIPY-GDP, 50 uM GDP) were dispensed into a 1536-well Greiner black solid-bottom medium binding assay plate. […] The assay plates were read at 5 minute intervals for 30 minutes in the ViewLux plate reader using 480nm excitation and 540nm emission filters. […]

SMILES | activation
CN1CCCCC1COC(=O)C1(O)c2ccccc2CCc2ccccc21 (stereo unspecified) | inactive: -11%
